This is a selection; strong and weak results do not stand in their true shares. Some of these compounds have results that are not shown, active ones among them. Calls of active or inactive are those of the source.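 How the source made its calls: active means activation above a cutoff set at the mean of all screened compounds plus 3 SD (cut at about 10% in these data); inactive means the rest.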
What follows are molecules tested on Nuclear hormone receptor DAF-12 (Heterodera glycines), GAL4 fusion (assay: hgDAF-12 GAL4 fusion reporter activation – cell-based, luminescence, HEK293, UAS-luciferase, primary screen (AID 687014;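 further: 0% = DMSO wells and 100% = sodium butyrate wells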)). Settings: HEK293 GAL4-hgDAF12 UAS-luciferase reporter, agonist luminescence; at 6.8 µM; active compounds read high; normalized to butyrate control.
With C=CCN1CCN(CCOC(=O)C(O)(c2ccccc2)c2ccccc2)CC1 the activation was inactive: -0.92%.
In the case of O=C(NCC1(N2CCCCC2)CCCCC1)c1cc(F)c(F)cc1Cl, the activation is reported as inactive: 0.64%.
For CCN1CCCC(OC(=O)C2(O)c3ccccc3C=Cc3ccccc32)C1 (stereo unspecified), the activation was inactive: 0.03%.
With Cc1cc(C(=O)NCC2(N3CCCCC3)CCCCC2)ccc1[N+](=O)[O-] the activation was inactive: 4.42%.
For O=C(NCC1(N2CCCCC2)CCCCC1)c1cccc(Br)c1, the activation was inactive: 2.77%.
With COc1ccc(C(=O)NCC2(N(C)C)CCCCC2)cc1 the activation was inactive: 1.33%.
With Cc1ccccc1C(=O)NCC1(N2CCCCC2)CCCCC1 the activation was inactive: 2.03%.
CN(C)c1ccc(C(=O)NCC2(N(C)C)CCCCC2)cc1 was tested, and the activation was inactive: 1.07%.
In the case of CN(C)C1CCCC1OC(=O)C(O)(c1ccccc1)c1ccccc1 (stereo unspecified), the activation is reported as inactive: 1.47%.
In the case of CC(C)N1C(=O)CC2(CCN(CCOC(=O)C(O)(c3ccccc3)c3ccccc3)CC2)C1=O, the activation is reported as inactive: -2.31%.
In the case of CCN(CC)CC(C)C(C)OC(=O)C(O)(c1ccccc1)c1ccccc1 (stereo unspecified), the activation is reported as inactive: -3.36%.
In the case of COc1cc(SC)ccc1C(=O)NCC1(N(C)C)CCCCC1, the activation is reported as inactive: -0.1%.
In the case of Cc1ccc(C(=O)NCC2(N3CCCCC3)CCCCC2)cc1, the activation is reported as inactive: -0.25%.
For O=C(NCC1(N2CCCCC2)CCCCC1)c1cc([N+](=O)[O-])ccc1Cl, the activation was inactive: -0.19%.
CN1[C@@H]2CC[C@H]1CC(OC(=O)C(O)(c1ccccc1)c1ccccc1)C2 (stereo partly specified) was tested, and the activation was inactive: 1%.
In the case of COc1ccc(Br)c(C(=O)NCC2(N3CCCCC3)CCCCC2)c1, the activation is reported as inactive: -0.91%.
C=C(C)C#CC(O)(C(=O)OC1CCN(C)CC1)c1ccccc1 (stereo unspecified) was tested, and the activation was inactive: -2.89%.
For CN(C)c1cccc(C(=O)NCC2(N(C)C)CCCCC2)c1, the activation was inactive: -1.56%.
With CC(C)Oc1ccc(C(=O)NCC2(N(C)C)CCCCC2)cc1 the activation was inactive: -0.1%.
In the case of O=C(OCCN1CCCC1)C(O)(c1ccccc1)c1ccccc1, the activation is reported as inactive: 1.6%.
In the case of O=C(OC1CN2CCC1CC2)C(CO)(c1ccccc1)c1ccccc1 (stereo unspecified), the activation is reported as inactive: 0.09%.
In the case of COc1cccc(C(=O)NCC2(N3CCCCC3)CCCCC2)c1, the activation is reported as inactive: -0.12%.
COc1ccc(Cl)cc1C(=O)NCC1(N(C)C)CCCCC1 was tested, and the activation was inactive: -0.43%.
For O=C(NCC1(N2CCCCC2)CCCCC1)c1cccc(Cl)c1, the activation was inactive: 2.3%.
For CN(C)C1(CNC(=O)c2ccc(Br)cc2)CCCCC1, the activation was inactive: -1.36%.
With COc1cc(C(=O)NCC2(N(C)C)CCCCC2)c([N+](=O)[O-])cc1OC the activation was inactive: 0.77%.

Reference: PubChem BioAssay AID687014 (The Scripps Research Institute Molecular Screening Center, 2013)
